Results published in PMC7872235, “Bisphenol-C is the strongest bifunctional ERα-agonist and ERβ-antagonist due to magnified halogen bonding” (PLoS ONE, 2021).

System: ERα and ERβ
Experiment: Average of specific activities over binding and reporter gene assays
Design: species or system human
Conditions: average of the five specific activities, BPE-Br = 100

Compound | Average receptor activity (specific activity)
Oc1ccc(C(c2ccc(O)cc2)C(Br)(Br)Br)cc1 [BPE-Br] | 100
Oc1ccc(C(c2ccc(O)cc2)C(F)(F)F)cc1 [BPE-F] | 10
